Assay results taken from publication PMC11023938 (Nature, 2024).
Values joined by “and” are separate entries in the source; they are usually repeats but may differ in a detail not shown here. Equal values may be shown once.

Legend:
[1] = test system: bone marrow-derived neutrophils; assay: Neutrophil transwell migration; type: cell-based, mouse
Procedure: Bone marrow cells were flushed from femora and tibiae of C57BL/6 J mice (8- to 12-week-old) with HBSS without Ca^2+ and Mg^2+ containing 2% FBS and 1 mM EDTA. Cell suspension was passed through a 70-μm strainer. Next, EasySep Mouse Neutrophil Enrichment Kit or EasySep Mouse Monocyte Isolation Kit ([…] Technologies) was used to isolate neutrophils or monocytes according to the manufacturer’s instructions. Neutrophils were resuspended in RPMI containing 100 units ml^−1 penicillin/streptomycin and 10% FBS for cell migration assay and cell death assay or 2% FBS for efferocytosis. Monocytes were cultured in DMEM/F12 (Thermo Fisher Scientific) containing 10% FBS, 2–10 ng ml^−1 M-CSF (PeproTech) and 100 units ml^−1 penicillin/streptomycin for subsequent experiments. RAMP1 and CALCRL were detected on neutrophils and monocytes using rabbit anti-RAMP1 (8.5 μg ml^−1, Alomone Lab, ARR-021) and rabbit anti-calcitonin receptor-like receptor (5 μg ml^−1, Biorbyt, orb526584).
(§1) Assays were conducted using 6.5-mm-diameter culture plate inserts (Corning) with 5-μm and 3-μm pore sizes for macrophages and neutrophils, respectively. Macrophages (1 × 10^5) or neutrophils (3 × 10^5) in migration media (DMEM/F12 with 0.25% BSA) were added to the inserts. […] Cells were allowed to migrate through the insert membrane for 3-4 h at 37 °C with 5% CO2. For macrophages, the inserts were then fixed with 4% paraformaldehyde, and cells on the upper side were removed. DAPI (1 μg ml^−1) was used to stain cells on the bottom side, and they were counted using a fluorescent microscope. For neutrophils, cells that migrated into the lower chamber were collected and counted using a haemocytometer. The data are presented as the fold change, calculated by dividing the number of cells that migrated in response to treatments by the number of cells that migrated spontaneously (migration media only).

[2] = test system: bone marrow-derived macrophages; assay: Macrophage transwell migration; type: cell-based, mouse
Procedure: (§2) Bone marrow cells from 8- to 12-week-old C57BL/6 J mice were flushed, filtered and cultured in conditioned medium (DMEM/F12 with 10% heat-inactivated FBS, 100 units ml^−1 penicillin/streptomycin, and 20% L929 fibroblasts-conditioned medium) at 37 °C with 5% CO2. After 7–9 days, differentiated macrophages were collected and seeded in 12-well or 6-well plates. […] Macrophages were detached with TrypLE (Gibco) containing 3 mM EDTA, stained with LIVE/DEAD Aqua dye for 20 min on ice, and incubated with blocking solution (10 μg ml^−1 TruStain FcX anti-CD16/32 (clone 93, BioLegend)) for 20 min before staining with antibodies for 30 min on ice. Antibodies from BioLegend included PE anti-CD11b (clone M1/70, 1 μg ml^−1), BV711 anti-F4/80 (clone BM8, 2 μg ml^−1), APC anti-CD80 (clone 16-10A1, 0.5 μg ml^−1) and PE-Cyanine7 anti-CD206 (clone C068C2, 1 μg ml^−1). For intracellular staining, cells were fixed and permeabilized using FluoroFix Buffer and Intracellular Staining Permeabilization Wash Buffer (Perm buffer, BioLegend). APC anti-mouse arginase-1 (Thermo Fisher, Clone AlexF5, 1 μg ml^−1) was added to the Perm buffer and incubated with the cells for 30 min on ice. After washing with Perm buffer and staining buffer, cells were analysed using BD LSR Fortessa X-20 and FlowJo software (BD Biosciences).
as §1
Macrophages (4 × 10^5 cells per well in a 6-well plate) were transfected with 10 nM scrambled siRNA (Silencer Select Negative Control No. 1 siRNA, Thermo Fisher, 4390843) or Silencer Select Pre-Designed siRNA against mouse TSP-1 (Thermo Fisher, s124596) using Reduced-Serum Medium (Opti-MEM, Gibco) and Lipofectamine RNAiMAX (Invitrogen, 51985034) for 6 h. The medium was then replaced with fresh culture medium (DMEM/F12 with 10% FBS). After 24 h, cells were collected for the migration assay. […] After 24 h, cells were collected and co-cultured with dead or dying neutrophils. […]

[3] = test system: bone marrow-isolated neutrophils; assay: Neutrophil cell death; type: cell-based, mouse; settings: CGRP 1-20 nM, in the presence of IL-1β and TNF, 12 h
[4] = test system: bone marrow-derived macrophages; assay: Macrophage polarization marker expression (CD206, arginase-1, Ly6C); type: cell-based, mouse
Procedure: as §2
Macrophages (4 × 10^5 cells per well in a 6-well plate) were transfected with 10 nM scrambled siRNA (Silencer Select Negative Control No. 1 siRNA, Thermo Fisher, 4390843) or Silencer Select Pre-Designed siRNA against mouse TSP-1 (Thermo Fisher, s124596) using Reduced-Serum Medium (Opti-MEM, Gibco) and Lipofectamine RNAiMAX (Invitrogen, 51985034) for 6 h. The medium was then replaced with fresh culture medium (DMEM/F12 with 10% FBS). After 24 h, cells were collected for the migration assay. […] After 24 h, cells were collected and co-cultured with dead or dying neutrophils. The evaluation of cell death and polarization used the same methods as those for assessing macrophage death and polarization marker expression.

C2C12 mouse myoblasts = assay: Proliferation assay (CyQUANT), myoblasts; type: cell-based; settings: for Proliferation assay, Myoblasts: each grid row one replicate
Procedure: Human umbilical vein endothelial cells (HUVECs; Sigma, 200P-05N) cultured in EGM-2 medium (Lonza, CC-4176) up to 3 passages, and primary mouse fibroblasts from C57BL/6 J mouse tails[26] (passages 2–3) were used. MCDB-131 medium (Thermo Fisher Scientific) with 100 mg ml^−1 penicillin/streptomycin and 2 mM glutamine was employed for proliferation assays. C2C12 mouse myoblasts (CellBank Australia) were cultured in a 1:1 ratio of DMEM to F10 medium (2 mM glutamine, 10% FBS, 100 units ml^−1 penicillin/streptomycin). HaCaT keratinocytes (a gift from R. Boyd) were cultured in DMEM without Ca^2+ and Mg^2+ (2 nM glutamine, 10% Chelex-treated FBS, 0.03 nM calcium chloride, 100 units ml^−1 penicillin/streptomycin) for at least 3 passages. Cells obtained from vendors were authenticated and certified negative for Mycoplasma contamination. For proliferation assays, FBS was reduced to 2% or kept at 10% for 24 h. […] Incubation for 48 h (fibroblasts, C2C12) or 72 h (HUVECs, HaCaTs) at 37 °C with 5% CO2 followed. Proliferation was determined using the CyQUANT Cell Proliferation Assay (Invitrogen), presented as fold change over basal proliferation (medium only). PerkinElmer EnVision multi-mode plate reader with EnSpire Manager software was used.

[5] = test system: Nav1.8^cre/Rosa26^DTA mice; assay: Volumetric muscle loss model, nociceptor-ablated mice; type: in vivo, mouse; settings: 1 μg CGRP or equimolar eCGRP via fibrin hydrogel, D12 post-injury; compared with saline control
C57BL/6 J mice = assay: Hot plate test; type: in vivo, mouse; settings: intraplantar 1 μg, hot plate 52 °C, 30 min to 48 h, n = 8

calcitonin gene-related peptide [CGRP]
migration of Ramp1−/− neutrophils ([1]; CGRP 1 nM, with or without CXCL1): did not inhibit | neutrophil migration in the absence of chemokines ([1]; CGRP 1 or 20 nM): inhibited to some extent | neutrophil migration towards CXCL1 ([1]; CGRP 1 or 20 nM, CXCL1 150 ng ml−1, 3-4 h): severely inhibited | effect of CGRP on macrophage migration upon Thbs1 knockdown ([2]; CGRP 1 nM, Thbs1 siRNA 10 nM, towards CCL2): abolished | migration of Ramp1−/− macrophages ([2]; CGRP 1 nM, with or without CCL2): did not inhibit | macrophage migration in the absence of chemokines ([2]; CGRP 1 or 20 nM): inhibited to some extent | macrophage migration towards CCL2 ([2]; CGRP 1 or 20 nM, CCL2 10 ng ml−1, 3-4 h): severely inhibited | neutrophil death [3]: increased | effect of CGRP on macrophage polarization (CD206) upon Thbs1 knockdown ([4]; CGRP 1 nM, Thbs1 siRNA 10 nM, IL-4/IL-13): abolished | CD206 level ([4]; CGRP 1 or 20 nM, in the presence of IL-4/IL-13): increased levels | arginase-1 level ([4]; CGRP 1 or 20 nM, in the presence of IL-10): increased levels | macrophage Ly6C expression ([4]; CGRP 1 or 20 nM, in vitro): no direct impact | Proliferation assay, Myoblasts (C2C12 mouse myoblasts; 1nM CGRP, medium 2% FBS): 0.98 and 0.95 and 1.48 and 1.23 | Proliferation assay, Myoblasts (C2C12 mouse myoblasts; 1nM CGRP, medium 10% FBS): 1.10 and 0.97 and 1.06 and 1.03 | Proliferation assay, Myoblasts (C2C12 mouse myoblasts; 20nM CGRP, medium 2% FBS): 1.03 and 0.85 and 1.58 and 1.08 | Proliferation assay, Myoblasts (C2C12 mouse myoblasts; 20nM CGRP, medium 10% FBS): 0.90 and 0.95 and 1.02 and 0.92 | proliferation of myoblasts (C2C12 mouse myoblasts; CGRP 1 or 20 nM, 2% or 10% FBS, 48 h): no significant effect | extent of muscle regeneration [5]: enhanced the extent | thermal sensitivity (C57BL/6 J mice): transient and slight increase
